Results from article PMC6271009, “Design and Synthesis of Thiazolo[5,4-f]quinazolines as DYRK1A Inhibitors, Part II” (Molecules, 2014).

What was measured:
DYRK1A = target: T1, DYRK1A (Homo sapiens, UniProt Q13627); assay: DYRK1A kinase assay, Reaction Biology Corporation HotSpot technology (33P ATP); format: biochemical; conditions: purified recombinant kinase, 10 µM ATP, 120 min, room temperature
T1 construct: Purified recombinant kinase was incubated with serial 3-fold dilutions of test compounds; purchased Reaction Biology Corporation

DYRK1B = DYRK1B (Homo sapiens, UniProt Q9Y463); assay: DYRK1B kinase assay, Reaction Biology Corporation HotSpot technology (33P ATP)

pIC50 (DYRK1A): 8.35 | pIC50 (DYRK1B): 8.33
Compound: COC(=N)c1nc2ccc3ncnc(Nc4ccc5nc[nH]c5c4)c3c2s1 [Compound 9g, Methyl 9-(1H-benzo[d]imidazol-6-ylamino)thiazolo[5,4-f]quinazoline-2-carbimidate]

pIC50: −log10 of the molar value.
